From ChEMBL document CHEMBL1125198, “Synthesis, ligand binding, QSAR, and CoMFA study of 3 beta-(p-substituted phenyl)tropane-2 beta-carboxylic acid methyl esters” (J Med Chem, 1991)

By UniProt entry, the sequences of proteins in these tests, tags left out.
UniProt P23977, whole entry: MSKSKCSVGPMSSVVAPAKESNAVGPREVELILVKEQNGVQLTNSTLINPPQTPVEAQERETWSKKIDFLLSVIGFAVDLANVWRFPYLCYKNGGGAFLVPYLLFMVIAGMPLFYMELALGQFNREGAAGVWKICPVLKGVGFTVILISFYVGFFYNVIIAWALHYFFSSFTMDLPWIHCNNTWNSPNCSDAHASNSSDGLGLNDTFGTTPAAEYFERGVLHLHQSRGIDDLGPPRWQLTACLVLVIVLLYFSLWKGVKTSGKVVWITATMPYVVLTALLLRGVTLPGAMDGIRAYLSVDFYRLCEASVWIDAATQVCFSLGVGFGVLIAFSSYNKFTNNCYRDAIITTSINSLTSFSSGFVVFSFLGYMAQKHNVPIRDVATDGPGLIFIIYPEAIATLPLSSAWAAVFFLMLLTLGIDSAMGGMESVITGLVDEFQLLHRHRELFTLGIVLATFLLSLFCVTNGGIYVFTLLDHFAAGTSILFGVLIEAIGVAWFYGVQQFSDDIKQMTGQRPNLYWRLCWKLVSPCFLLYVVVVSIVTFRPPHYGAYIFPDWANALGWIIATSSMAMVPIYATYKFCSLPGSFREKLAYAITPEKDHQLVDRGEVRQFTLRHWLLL

Target: Sodium-dependent dopamine transporter (Rattus norvegicus, UniProt P23977)
Assay: Affinity against cocaine binding site of dopamine transporter in rat striatum using [3H]2b as radioligand.
Format: tissue-based

## COC(=O)[C@@H]1C2CC[C@H](C[C@@H]1c1ccc(OC)cc1)N2C
  IC50: 8.14 nM
